These results are taken from US20080152735A1, “Herbal Extract Having Anti- Influenza Virus Activity and Preparation of Same” (NATIONAL DEFENSE MEDICAL CENTER, priority 2006, published 2008).

The structures appear in SMILES notation.

For this data set, the system named is MDCK cells (Madin-Darby Canine Kidney Epithelial Cells).

Turning to `NC(=O)c1ncn([C@@H]2O[C@H](CO)[C@@H](O)[C@H]2O)n1` [Ribavirin, reference compound], the D result is given as “++++ (key: absorbance percentage≦25 was recorded as +/−; >25≦50 recorded as +; >50≦75 as ++; >75≦100 as +++; >100 as ++++)”.
